Data reported in patent US7618945B2, “Heteroaryl peptidomimetics as thrombin receptor antagonists” (Janssen Pharmaceutica, N.V., priority 2002, dated 2009).

Sequences of proteins named here, by UniProt entry; tags and fusion partners are left off. Residues count along the entry.
UniProt P25116, 22-425 limits assumed: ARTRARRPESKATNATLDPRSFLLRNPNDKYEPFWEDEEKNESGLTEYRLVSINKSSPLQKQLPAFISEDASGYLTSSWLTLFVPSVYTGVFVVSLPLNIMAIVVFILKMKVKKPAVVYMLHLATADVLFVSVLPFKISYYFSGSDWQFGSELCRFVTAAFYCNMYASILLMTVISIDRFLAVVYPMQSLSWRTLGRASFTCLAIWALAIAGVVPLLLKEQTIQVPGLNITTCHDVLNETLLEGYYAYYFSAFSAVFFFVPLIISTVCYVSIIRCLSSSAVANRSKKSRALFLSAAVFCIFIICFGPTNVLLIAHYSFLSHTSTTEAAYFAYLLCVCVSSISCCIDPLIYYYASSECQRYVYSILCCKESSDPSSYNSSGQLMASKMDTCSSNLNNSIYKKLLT

Columns and labels:
[1] = biological target: thrombin receptor (PAR-1) (Homo sapiens, UniProt P25116); assay: In vitro thrombin receptor binding assay (CHRF membranes); conditions: read-out: Thrombin Receptor Binding IC50, tritiated 721-40 (Ser-pFPhe-Har-Leu-Har-Lys-Tyr-NH2), 30 min incubation
Description: In Vitro Thrombin Receptor Binding Assay
CHRF membranes (Jones, Biochim. Biophys. Acta 1992, 1136, 272) are thawed from −70° C., centrifuged at maximum speed for 5 min, washed twice with binding buffer (50 mM HEPES containing 5 mM MgCl2 and 0.1% BSA), and re-suspended in binding buffer ([…]). 100 μL of membranes are added to the 24-Wallac plates and delivered to the Tomtech apparatus. In a typical experiment, 6 μL of samples (from a 125 μg/mL intermediary plate, 20% DMSO) and 44 μL buffer are delivered to the plates (final conc. of compounds is 3.7 μg/mL, 0.6% DMSO). Similarly, 6 μL 20% DMSO and 44 μL buffer are delivered to both column 1 (NSB) and column 12 (TB). 10 μL Ser-pFPhe-Har-Leu-Har-Lys-Tyr-NH2 (721-40; 500 μM in deionized water) is added to column 1. 50 μL tritiated 721-40 (specific activity 46 Ci/mmol) is added to all the wells. The plates are mixed well for 20 seconds, incubated for 30 min, and then harvested with 10 mM HEPES/138 mM NaCl using the Skatron harvester. The filters (GF/C Brandel FPXLR 296) are presoaked 3 h in 0.5% polyethylenimine in HEPES/0.1M N-acetylglucosamine) are set in saran wrap and dried for 3 min in the microwave, and placed in sample bags (Wallac 1450-432). 4.5 mL scintillation fluid (Wallac, Betaplate Scint 1205-440) is added. The bags are sealed, placed in filter cassettes (Wallac 1450-104), and analyzed on the microbeta counter.
(§1) Table 3 contains IC50 values (μM) of the compounds against platelet aggregation stimulated by thrombin and IC50 values (μM) in a thrombin receptor (PAR-1) binding assay.

gel-filtered platelets [2] = assay: Inhibition of thrombin-induced gel-filtered platelet aggregation; conditions: read-out: Platelet Aggregation Thrombin IC50, aggregation initiated by human α-thrombin 0.113 nM-0.187 nM, OD 650 at 0 and 5 min
Description: (§2) In Vitro Inhibition Of Thrombin- and SFLLRN-NH2-Induced Gel-Filtered Platelet Aggregation Assay
(§3) Platelet Rich Plasma concentrate (Biological Specialties, Inc) is gel filtered (Sepharose 2B, Pharmacia) in Tyrode's buffer (140 mM NaCl, 2.7 mM KCl, 12 mM NaHCO3, 0.76 mM Na2HPO4, 5.5 mM dextrose, 5.0 mM Hepes, and 2 mg/ml BSA @ pH 7.4). The gel-filtered platelets are diluted with Tyrode's buffer (143,000 platelets/μl, final platelet count per well), compound solution in buffer, and 2 mM CaCl2 in a 96 well plate. Platelet aggregation is initiated by the addition of human α-thrombin (American Diagnostica, 0.113 nM-0.187 nM) or SFLLRN-NH2 (2 μM) shown to achieve 80% aggregation (0.015-0.025 NIH U/ml, 0.113 nM-0.187 nM). The assay plate is stirred constantly. Platelet aggregation is monitored by intermittently placing the plate in a microplate reader (Molecular Devices) to read optical density ([…], ΔSOFT) at 0 and 5 minutes after the thrombin addition. Aggregation was calculated to be the decrease in optical density between the time 0 and 5 minute measurements. All samples were tested in duplicate wells on the same plate.
as §1

gel-filtered platelets [3] = assay: Inhibition of SFLLRN-NH2-induced gel-filtered platelet aggregation; conditions: read-out: Platelet Aggregation SFLLRN-NH2 IC50, aggregation initiated by SFLLRN-NH2 (2 μM), OD 650 at 0 and 5 min
Description: as §2, §3

Row | SMILES | IC50 [1] [µM] | IC50 (gel-filtered platelets [2]) [µM] | IC50 (gel-filtered platelets [3]) [µM]
1 | CC(=O)N[C@@H](CCCNC(=N)N)C(=O)N[C@@H](Cc1ccccc1)C(=O)Nc1ccc2c(CN)cn(Cc3ccc(F)cc3)c2c1 | > 100 | – | –
2 | CCCNCc1cn(Cc2ccc(F)cc2)c2ccc(NC(=O)[C@H](Cc3ccccc3)NC(=O)[C@H](CCCNC(=N)N)NC(=O)Nc3ccc(Cl)cc3)cc12 | > 100 | – | –
3 | CCCNCc1cn(Cc2ccc(F)cc2)c2ccc(NC(=O)[C@H](Cc3ccccc3)NC(=O)[C@H](CCCNC(=N)N)NC(=O)Nc3ccc(OC)cc3)cc12 | > 100 | – | –
4 | CCCNCc1cn(Cc2ccc(F)cc2)c2ccc(NC(=O)[C@H](Cc3ccccc3)NC(=O)[C@H](CCCNC(=N)N)NC(=O)N3CCOCC3)cc12 | > 100 | – | –
5 | CCCNCc1cn(Cc2ccc(F)cc2)c2ccc(NC(=O)[C@H](Cc3ccccc3)NC(=O)[C@H](CCCNC(=N)N)NC(=O)OCc3ccccc3)cc12 | 42 | – | –
6 | CCCNCc1cn(Cc2ccc(F)cc2)c2ccc(NC(=O)[C@H](Cc3ccccc3)NC(=O)[C@H](CCCNC(=N)N)NC(=O)Nc3ccccc3)cc12 | > 100 | – | –
7 | CC(=O)N[C@@H](CCCNC(=N)N)C(=O)N[C@@H](Cc1ccccc1)C(=O)Nc1ccc2c(CNC3CCCC3)cn(Cc3ccc(F)cc3)c2c1 | 5.2 | 50.1 | 4
8 | CCCNCc1cn(Cc2ccc(F)cc2)c2ccc(NC(=O)[C@H](Cc3ccccc3)NC(=O)[C@H](CCCNC(=N)N)NC(=O)Nc3ccc(F)cc3)cc12 | > 100 | – | –
